The nature of this data set: Solubility. The conditions noted are these: water / completely aqueous solutions.

For “(mixed) ethanol and hydrocortisone ester (C21) of hyaluronic acid (HY) [HYC5]”, the “solubility in water / aqueous solutions (in words)” value is given as “insoluble in completely aqueous solutions”.

The values above are taken from patent publication US4851521A, “Esters of hyaluronic acid” (priority 1985, dated 1989).
